According to PubChem BioAssay AID1117267 (The Scripps Research Institute Molecular Screening Center, 2014):
The list shows a part of the results, in another mix than the full data. The source made the active and inactive calls.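 How the source made its calls: active means activation above the mean of all tested compounds plus 3 SD (cut at about 9.5% in these data); inactive means the rest.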

Assay: compounds raising TTR promoter-driven luciferase – cell-based, luminescence, SH-SY5Y, TTR promoter Gaussia luciferase, primary screen (AID 1117267);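 further: cells exposed to compounds for one day before reading; 0% = median of all test compound wells on the plate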
Settings: at 16.7 µM, stronger effect = higher value, 100% = recombinant luciferase protein wells

Row | SMILES | activation
1 | O=[N+]([O-])c1cc([N+](=O)[O-])c(Nc2nnnn2CCO)c([N+](=O)[O-])c1 | inactive: 0.93%
2 | CN1CCCCC1COC(=O)C1(O)c2ccccc2CCc2ccccc21 (configuration not stated) | inactive: 2.24%
3 | CP(=O)(Nc1ccc(SC(F)(F)F)cc1)Oc1ccccc1 (configuration not stated) | inactive: -2.2%
4 | O=[N+]([O-])c1cc([N+](=O)[O-])c(-c2cnn(-c3ccccc3)c2)c([N+](=O)[O-])c1 | inactive: 0.72%
5 | Cc1ccc(C)c(NP(C)(=O)Oc2ccccc2)c1 (configuration not stated) | inactive: 1.95%
6 | CP(=O)(Nc1ccc(SC(F)(F)F)cc1)Oc1ccc(Cl)cc1 (configuration not stated) | inactive: -1.46%
7 | CCc1ccc(OP(C)(=O)N2CCN(c3ccc([N+](=O)[O-])cc3)CC2)cc1 (configuration not stated) | inactive: -3.77%
8 | O=[N+]([O-])c1cc([N+](=O)[O-])c(O)c([N+](=O)[O-])c1.c1ccc(Oc2ccncc2)cc1 | inactive: -0.36%
9 | CP(=O)(Nc1ccccn1)Oc1ccc(Cl)cc1 (configuration not stated) | inactive: 0.69%
10 | COc1ccccc1OP(C)(=O)Nc1ccccc1 (configuration not stated) | inactive: 1.01%
11 | COc1ccc(OP(C)(=O)Nc2ccc(Br)cc2)cc1 (configuration not stated) | inactive: -0.08%
12 | O=C(OCCCN1CCCC1)C(O)(c1ccccc1)C1CCCCC1 (configuration not stated) | inactive: 5.31%
13 | COc1ccccc1OP(C)(=O)Nc1ccccc1Br (configuration not stated) | inactive: 1.5%
14 | CN(C)C(=O)c1c([N+](=O)[O-])cc([N+](=O)[O-])cc1[N+](=O)[O-] | inactive: 0.53%
15 | O=[N+]([O-])c1cc([N+](=O)[O-])c(Nc2ccccn2)c([N+](=O)[O-])c1 | inactive: -6.12%
16 | CP(=O)(Nc1ccccn1)Oc1ccccc1 (configuration not stated) | inactive: 2.84%
17 | COc1ccc(OP(C)(=O)Nc2ccc(SC(F)(F)F)cc2)cc1 (configuration not stated) | inactive: 5.62%
18 | O=[N+]([O-])c1cc([N+](=O)[O-])c(OC2CCCCC2O)c([N+](=O)[O-])c1 (configuration not stated) | inactive: -1.78%
19 | O=C(OC1CN2CCC1CC2)c1ccc([N+](=O)[O-])cc1 (configuration not stated) | inactive: 1.82%
20 | CP(=O)(Nc1ccc(SC(F)(F)F)cc1)Oc1ccc(F)cc1 (configuration not stated) | inactive: -2.77%
21 | CCOP(C)(=S)SCC(=O)NC(C)(CC)C(=O)O (configuration not stated) | inactive: -1.68%
22 | Cc1ccccc1NP(C)(=O)Nc1ccccc1C | inactive: 1.46%
